Assay results published in patent US20240016766A1, “PHARMACEUTICAL COMPOSITION FOR TREATMENT OF INNER EAR DISORDERS THROUGH LOCAL ADMINISTRATION IN THE TYMPANIC AREA” (priority 2020, published 2024).

Settings: rat, in vivo
Experimental: Pharmacokinetics study of different active agents has been conducted with ready-to-use formulations. The pharmacokinetic study consists of a single administration up to the eardrum on male Long Evans rats and assessment of the level of the active agent in middle ear area (tympanic bulla) and in the inner ear area (perilymph).
2. Route of administration: 20 μl of each formulation are delivered in the ear canal of one animal in one administration.
3. Animals: 6 male rats Long Evans, were obtained from Janvier Labs, Le Genest St Isle, 53941 St Berthevin, France. Acclimation Animals arrived on site at least 5 days before the experiment to allow optimal acclimation. Selection Animal health was examined on the day before starting the study, to ensure that only animals in good health were selected to enter the testing procedures. […]
4. […] The exact volume of administration was determined during this first test and delivered (volume of 20 μL). […] The diffusion trough the tympanic membrane and into the inner ear and was assessed with the dosage of the perilymph sampling. […]
5. Bioanalysis: The concentration of each compound in the perilymph and in the tympanic bulla was quantified using an exploratory LC/MS-MS assay method in outsourcing laboratory (Eurofins Vergeze, France). The concentration of amitriptyline in plasma was assessed. […]

For `CCN(CC)CC(=O)Nc1c(C)cccc1C` [lidocaine], the “Presence within the inner ear (perilymph)” value was “present”.
